Reference: patent publication US20050196744A1 (priority 2004, published 2005)

Chains of the proteins cited; added tags and fusions are not shown.
UniProt P23977, whole entry D79E: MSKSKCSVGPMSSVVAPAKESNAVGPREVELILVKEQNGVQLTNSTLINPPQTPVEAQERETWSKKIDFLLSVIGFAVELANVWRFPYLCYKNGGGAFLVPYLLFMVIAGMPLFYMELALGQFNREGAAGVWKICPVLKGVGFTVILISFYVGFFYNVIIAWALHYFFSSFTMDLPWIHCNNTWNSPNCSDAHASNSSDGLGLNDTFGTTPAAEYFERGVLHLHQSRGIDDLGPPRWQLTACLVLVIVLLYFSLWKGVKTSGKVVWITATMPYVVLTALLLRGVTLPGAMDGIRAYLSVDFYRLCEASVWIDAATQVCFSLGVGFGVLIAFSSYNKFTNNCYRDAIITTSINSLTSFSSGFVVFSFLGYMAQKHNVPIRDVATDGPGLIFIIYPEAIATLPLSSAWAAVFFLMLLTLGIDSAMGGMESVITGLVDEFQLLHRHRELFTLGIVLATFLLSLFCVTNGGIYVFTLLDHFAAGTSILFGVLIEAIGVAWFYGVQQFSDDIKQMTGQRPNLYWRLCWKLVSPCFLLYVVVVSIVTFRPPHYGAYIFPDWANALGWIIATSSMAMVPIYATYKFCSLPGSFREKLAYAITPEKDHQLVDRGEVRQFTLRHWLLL

What was measured:
D79E DAT [1] = biological target: T1, D79E DAT (Rattus norvegicus, UniProt P23977, D79E); test: [3H]-dopamine uptake and uptake inhibition, CHO cells stably expressing D79E DAT; type: cell-based; conditions: comparison of Ki values
T1 construct: expressed in transfected cells; host or cells: CHO-K1, stably transfected; intact attached monolayers

D79E DAT [2] = biological target: T1, D79E DAT; test: [3H]-WIN 35,428 binding / displacement at CHO cells stably expressing D79E DAT; conditions: comparison of Ki values
Experimental: Ligand binding assays. […] Nonradioactive competitor concentrations were as indicated above for uptake inhibition. […] Membranes were aspirated with a Brandel harvester onto GF/B glass-fiber filter paper, washed with 3×5 ml cold binding buffer, and the filters measured for radioactivity via scintillation counting. For all binding assays, data were analyzed with the GraphPad Prism 2.0 software to obtain Kd, Ki and Bmax values.

| SMILES | loss of dopamine uptake inhibition potency caused by the D79E mutation (D79E vs WT DAT) (D79E DAT [1]) | loss of binding affinity ([3H]-WIN 35,428 displacement) caused by the D79E mutation (D79E vs WT DAT) (D79E DAT [2]) [fold] |
| --- | --- | --- |
| C[C@H](N)Cc1ccccc1 [(+)-Amphetamine, S(+)-amphetamine] | 5 fold | 9 |
| C[C@@H](N)Cc1ccccc1 [(−)-Amphetamine, R(−)-amphetamine] | not significantly affected |  |
